High-throughput results: PubChem BioAssay, National Center for Advancing Translational Sciences (NCATS)
miR-21 reporter: miR-21 reporter, rising signal | 340,000 tested, under 10 active | AID 2288 | HeLa miR-21 FLuc reporter, luciferase, 48 h | Potency, µM (titrated, usually from 38.3 µM), for inactives: at the highest dose reporter change, positive = more light; active = well fitted rising curve with a large enough effect; inconclusive = small, poorly fitted or top-dose-only effect; inactive = no such curve, though single readings can be large or run the other way;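 further: % of control where 0% means no effect; miR-21 action dims this reporter so a rising signal means less miR-21 action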
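HeLa cells endogenously expressing miR-21, stably carrying CMV-driven firefly luciferase with a downstream miR-21 binding site, 2000 cells/well. Titrations up to approximately 40 uM, 48 hours; luciferase luminescence read.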
A549 viability: A549 cytotoxicity, counter-screen for Nrf2 inhibitors; A549 ARE-Fluc cells, CellTiter-Fluor viability, 18-24 h; Potency, µM (doses to about 46 µM), for the others: top-dose activity change, negative = cytotoxicity, most hits filed as inhibitors; 0.16% of 390,000 active; AID 504648; also: potency is read from the fitted curve at half-maximal effect; % is scaled to controls: 0 for no effect and ±100 for the full control effect
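A549 ARE-Fluc cells in 5% FBS OPTI-MEM, 5000 cells/well, rested 2 h then exposed to compounds in concentration-response for 18-24 h at 37 °C. Viability by CellTiter-Fluor fluorescence (Ex 405/Em 525) after 30 min; luciferase luminescence (BugLite, 15 min, RT) read afterwards.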
Nrf2 ARE act: activators of Nrf2 (ARE) signaling. AREc32 ARE-luciferase reporter (MCF7-derived line), luminescence, 24 h. Potency, µM (titrated, usually from 46.1 µM), inactives show at the top dose activation, usual class: activators. 0.31% of 410,000 active. AID 624171; also: potency is read from the fitted curve at half-maximal effect; % of control where 0% means no effect; nearly all actives have a fitted effect of over 65% in size
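Luciferase luminescence (Steady-Glo, 30 min at room temperature) served as the read-out of ARE activation in AREc32 cells treated with compounds for 24 hr at 37 deg C.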
Nrf2 inh: Nrf2 pathway inhibition; A549 ARE-Fluc reporter, luciferase luminescence, 18-24 h; Potency, µM (doses to about 46 µM), inactives show at the top dose activity change, negative = inhibition, most hits filed as inhibitors; 2.1% of 360,000 active; also: potency is read from the fitted curve at half-maximal effect; % is scaled to controls: 0 for no effect and ±100 for the full control effect; nearly all actives have a fitted effect of over 60% in size
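Concentration-response testing used A549 ARE_Fluc cells at 5000 cells/well. Following an 18-24 h compound incubation, viability was read by fluorescence (Ex 405/Em 525) and luciferase output by luminescence.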
B2AR arrestin: recruits beta-arrestin to the human beta2-adrenergic receptor; Potency, µM (highest dose often 46.1 µM), for inactives: top-dose activation, most hits filed as activators; beta-arrestin recruitment to beta2AR, cell-based reporter; 0.02% of 330,000 active;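 also: potency is read from the fitted curve at half-maximal effect; 0% = DMSO controls and full agonism = EC100 isoproterenol or metaproterenol; nearly all actives have a fitted effect of over 65% in size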
* marks the source's active call; other numbers are inactive results; ? = inconclusive; · = no result. Only some compounds are listed: those with a hit (about 2.2% of all), similar ones and a draw of the others. Unless noted, calls follow the shape of the dose curve; as a rule, active = well fitted curve in the direction sought with a large enough effect; inconclusive = small, poorly fitted or top-dose-only effect, or another doubt; inactive = no such curve, though single readings can be large; an effect the other way counts as inactive or inconclusive.

Letters – A = miR-21 reporter; B = A549 viability; C = Nrf2 ARE act; D = Nrf2 inh; E = B2AR arrestin
CSc1ccc(CNC(=O)c2ccccc2NC(=O)c2nsc3ccccc23)cc1
  A: -10.0%	B: 16.0%	C: 5.3%	D: ·	E: ·
COc1ccc(-c2nnn3c2nc(NCCc2ccc(OC)c(OC)c2)c2ccccc23)cc1
  A: -8.9%	B: 0.1%	C: 3.4%	D: 29.7%	E: ·
CSc1nc(-c2ccc(C)cc2)[nH]c1S(=O)(=O)c1ccccc1
  A: 17.5%	B: -10.5%	C: 2.6%	D: 18.4µM*	E: -0.2%
Cc1nnc(Sc2c(-c3ccccc3)c3ccc(Cl)cc3[nH]c2=O)s1
  A: -8.4%	B: -12.6%	C: -0.8%	D: 18.4µM*	E: -0.3%
COc1cc(OC)cc(C(=O)Nc2nc(-c3ccccc3)c(-c3ccccc3)o2)c1
  A: -2.3%	B: ?	C: -0.3%	D: 18.4µM*	E: 0.2%
CC(=O)Nc1nc(-c2ccccc2)c(-c2ccccc2)o1
  A: -1.0%	B: 3.5%	C: 3.2%	D: 4.9%	E: -1.3%
O=C(CSc1nnc(-c2ccco2)n1Cc1ccco1)Nc1ccccc1
  A: -2.5%	B: -6.7%	C: -0.7%	D: -18.9%	E: -0.2%
O=C(CSc1nnc(-c2ccccc2)n1Cc1ccco1)Nc1ccc(S(=O)(=O)N2CCCC2)cc1
  A: 16.0%	B: -25.5%	C: 2.6%	D: 16.4µM*	E: 0.3%
O=C(CSc1nnc(-c2ccncc2)n1Cc1ccco1)Nc1nc(-c2ccccc2)cs1
  A: -0.7%	B: ?	C: 0.5%	D: 13µM*	E: -1.0%
COCCn1c(=S)[nH]c2cc(C(=O)N3CCN(Cc4ccccc4)CC3)ccc2c1=O
  A: ·	B: 0.0%	C: ·	D: 10.8%	E: ·

(listing goes on)
Letters – A = miR-21 reporter; B = A549 viability; C = Nrf2 ARE act; D = Nrf2 inh; E = B2AR arrestin
COc1ccc2ncnc(NCc3cccs3)c2c1-c1ccc2c(c1)OCO2
  A: ·	B: -18.8%	C: ·	D: ?	E: ·
CCOc1ccc(NC(=O)Cn2c(=O)cc(C)c3c(C)nn(-c4cccc(Cl)c4C)c32)cc1
  A: -2.2%	B: 6.5%	C: 0.3%	D: 7.3%	E: ·
CCc1ccc(NC(=O)Nc2ccc3c(c2)N(C)C(=O)CS3)cc1
  A: 26.5%	B: -11.1%	C: -1.6%	D: 16.4µM*	E: 0.1%
CCN(CC)c1ccc(NC(=O)Nc2cccc(C(C)=O)c2)cc1
  A: -13.9%	B: -1.3%	C: 5.0%	D: 14.6µM*	E: ·
CCOC(=O)c1cccc(NC(=O)Nc2ccc3c(c2)N(C)C(=O)c2ccccc2S3)c1
  A: 16.5%	B: -19.6%	C: 0.4%	D: 20.6µM*	E: ·
CC(=O)c1cccc(NC(=O)Nc2ccc3c(c2)N(C)C(=O)CS3)c1
  A: 24.4%	B: -1.3%	C: 0.1%	D: 13µM*	E: -0.3%
Cc1cc(C)cc(NC(=O)Nc2ccc3c(c2)N(C)C(=O)CS3)c1
  A: 20.5%	B: 12.0%	C: 2.6%	D: ?	E: -0.5%
O=C(CCCl)Nc1cccc2cccnc12
  A: ·	B: -12.2%	C: ·	D: 1.0%	E: ·
Cc1ccc(S(=O)(=O)SC/C=C/CSS(=O)(=O)c2ccc(C)cc2)cc1
  A: ·	B: -5.6%	C: 6.6%	D: 11.6µM*	E: ·
Cc1ccc(S(=O)(=O)SCCCSS(=O)(=O)c2ccc(C)cc2)cc1
  A: ·	B: 0.1%	C: 2.7%	D: 14.8%	E: ·

Other results.
Letters – A = miR-21 reporter; B = A549 viability; C = Nrf2 ARE act; D = Nrf2 inh; E = B2AR arrestin
CCc1ccc(S(=O)(=O)c2nnn3c2nc(Nc2ccc(F)cc2)c2cc(Cl)ccc23)cc1
  A: -4.4%	B: -19.3%	C: 0.0%	D: 9.2µM*	E: ·
COc1ccc(Nc2nc3c(S(=O)(=O)c4ccccc4)nnn3c3ccc(Cl)cc23)cc1
  A: -15.9%	B: ?	C: -0.9%	D: ?	E: ·
Cc1nc2cc(-c3ccccc3)sc2c(=O)n1N
  A: 19.3%	B: -0.5%	C: -0.2%	D: 4.11µM*	E: -0.3%
COc1ccc(-c2cc3nc(C)n(N)c(=O)c3s2)cc1
  A: ?	B: 16.1%	C: -3.2%	D: 6.51µM*	E: -1.0%
Cn1c(NCc2ccccc2)nc2cc(-c3ccccc3)sc2c1=O
  A: ·	B: ·	C: 26.1%	D: ·	E: ·
COc1ccc(-c2cc3nc4n(c(=O)c3s2)CCC4)cc1
  A: -16.4%	B: 1.9%	C: -2.1%	D: ?	E: -0.7%
COc1cc(NC(=O)c2c(C)oc3ncnc(N4CCCCC4)c23)cc(OC)c1
  A: -6.5%	B: -5.5%	C: 7.7%	D: 10.1%	E: ·
CCCCOc1ccc(C(=O)NCCc2csc3nc(-c4ccccc4F)nn23)cc1
  A: 15.5%	B: 7.7%	C: 0.8%	D: ·	E: ·
N/C(=N\OC(=O)/C=C/c1ccccc1Cl)c1cccnc1
  A: -65.9%	B: -1.1%	C: 15.8µM*	D: ?	E: 0.3%
N/C(=N\OC(=O)c1cccc2ccccc12)c1cccnc1
  A: -41.0%	B: -0.5%	C: 2µM*	D: ?	E: 0.1%

Additional compounds
Sequence of screens – miR-21 reporter	A549 viability	Nrf2 ARE act	Nrf2 inh	B2AR arrestin
> CCNc1nc(NCC)nc(-n2cc(C(=O)c3cc(Cl)ccc3O)cn2)n1
  ·	-3.6%	·	6.8%	·
> CS(=O)(=O)Nc1cccc2cccnc12
  -2.7%	10.1%	?	22.2%	3.2%
> Cc1cc(C)n(-c2ccc3cccc(NS(C)(=O)=O)c3n2)n1
  -3.0%	-10.4%	-0.4%	5.17µM*	-0.2%
> CN1CCc2c(sc(NC(=O)c3ccc([N+](=O)[O-])o3)c2C(N)=O)C1
  -6.6%	20.6µM*	-2.0%	?	0.3%
> NC(=O)c1c(NC(=O)c2ccc([N+](=O)[O-])o2)sc2c1CCCC2
  -1.6%	2.1%	3.98µM*	-2.4%	0.0%
> N#Cc1c(NC(=O)c2ccc([N+](=O)[O-])o2)sc2c1CCC2
  -31.4%	?	?	6.8%	0.1%
> COc1ccccc1NC(=O)Cn1cc(S(=O)(=O)Cc2ccccc2)c2ccccc21
  12.6%	0.8%	3.7%	-18.0%	·
> O=S(=O)(c1ccc2c(c1)OCCO2)C1CCN(S(=O)(=O)c2c(F)cccc2F)CC1
  ·	-3.3%	·	14.2%	·
> CN(CC(=O)Nc1ccc(F)cc1)C(=O)C1CCN(S(=O)(=O)c2ccc3c(c2)OCCO3)CC1
  ·	-0.7%	0.0%	?	-0.3%
> CN(Cc1ccc(OC(F)F)cc1)C(=O)C1CCN(S(=O)(=O)c2ccc3c(c2)OCCO3)CC1
  ·	-1.8%	3.8%	23.1µM*	-0.3%
> CN(Cc1ccc(OC(F)F)cc1)C(=O)/C=C/c1ccc(S(=O)(=O)N2CCOCC2)cc1
  ·	0.2%	2.4%	23.1µM*	-2.5%
> COc1ccc(C(=O)c2c(C(F)(F)F)oc3c2C(=O)c2ccccc2C3=O)cc1
  7.3%	7.31µM*	-3.0%	·	0.1%
> COc1cccc(C(=O)Nc2nc(-c3nnn(-c4ccccc4C(F)(F)F)c3C)ns2)c1
  5.9%	-21.0%	2.1%	-10.2%	·
> O=[N+]([O-])c1ccc(Oc2ccc(S(=O)(=O)N3CCOCC3)cc2)cc1
  11.4%	-3.3%	0.8%	25.9µM*	-0.2%
> Cc1cccc(N2CCN(C(=O)C(NS(=O)(=O)c3cccs3)c3ccccc3)CC2)c1C (stereo unspecified)
  16.3%	-14.1%	-0.1%	9.2µM*	-0.3%
> CC(C)CC(COCc1ccc(C(F)(F)F)cc1)N1CCN(C(=O)c2ccc(C(F)(F)F)cc2)CCC1=O (stereo unspecified)
  7.5%	?	-3.3%	23.1µM*	-0.6%
> O=C(c1ccc(Cl)c(Cl)c1)N1CCC(=O)N(C(COCc2cccc(C(F)(F)F)c2)Cc2ccccc2)CC1 (stereo unspecified)
  1.6%	?	-3.5%	20.6µM*	-1.2%
> CC(C)Sc1nc2c(cnn2-c2ccccc2)c(=O)[nH]1
  -13.8%	4.1%	-0.5%	-27.7%	0.3%
> O=c1[nH]c(/C=C/c2ccc(OC(F)F)cc2)nc2c1cnn2-c1ccccc1
  -6.4%	-14.8%	0.0%	16.4µM*	-0.1%
> Cc1cc2c(s1)c1cnn(Cc3cccc(Cl)c3)c(=O)c1n2C
  ·	-3.6%	·	?	·

Of the compounds above, these contain an NH in an aromatic ring.
Sequence of screens – miR-21 reporter	A549 viability	Nrf2 ARE act	Nrf2 inh	B2AR arrestin
> CSc1nc(-c2ccc(C)cc2)[nH]c1S(=O)(=O)c1ccccc1
  17.5%	-10.5%	2.6%	18.4µM*	-0.2%
> Cc1nnc(Sc2c(-c3ccccc3)c3ccc(Cl)cc3[nH]c2=O)s1
  -8.4%	-12.6%	-0.8%	18.4µM*	-0.3%
> COCCn1c(=S)[nH]c2cc(C(=O)N3CCN(Cc4ccccc4)CC3)ccc2c1=O
  ·	0.0%	·	10.8%	·
> CC(C)Sc1nc2c(cnn2-c2ccccc2)c(=O)[nH]1
  -13.8%	4.1%	-0.5%	-27.7%	0.3%
> O=c1[nH]c(/C=C/c2ccc(OC(F)F)cc2)nc2c1cnn2-c1ccccc1
  -6.4%	-14.8%	0.0%	16.4µM*	-0.1%
